Values of other authors as cited in patent US8993117B2, “Devices with multiple surface functionality” (The Trustees of Princeton University, priority 2005, dated 2015).

Settings: cited from earlier work

B1: bone morphogenic protein-2 (BMP-2): titanium surfaces merely coated with BMP-2 (protein, UniProt P12643 283-396, looked up)
Bone morphogenetic protein 2: QAKHKQRKRLKSSCKRHPLYVDFSDVGWNDWIVAPPGYHAFYCHGECPFPLADHLNSTNHAIVQTLVNSVNSKIPKACCVPTELSAISMLYLDENEKVVLKNYQDMVVEGCGCR
- In vivo outcome of merely coated surface (in words): encapsulation of the surface by fibrous tissue
